“Also recorded” adds a separate entry of the source. Read-outs that look alike come from different tables or passages of the source.
Assays:
[1] = for brain regions stained (summary): OR6 and 7 at higher dose than OR5
[2] = not given; remark: listed apart in the source
[3] = target: T1, Lewy Bodies (LBs) in post-mortem brain (Homo sapiens, UniProt P37840); test: Staining of post-mortem brain sections (fluorescence microscopy); type: binding; conditions: 0.05 mg/ml; cryostat sections of fresh frozen post-mortem PD brains; Avidin-FITC; FIG. 12B
T1 construct: aggregates of native α-synuclein in human brain lysates; from tissue; host or cells: post-mortem human brain (frontal cerebral cortex lysates of control, AD and DLB patients; PD and DLB brain sections)
Protocol: Binding of the peptides was investigated using 5 mm wax sections of formalin-fixed post-mortem PD and DLB brains, or cryostat sections of the fresh frozen brains. The sections were first immunostained with anti-α-synuclein antibody (MAb 211 or FL-140) as control and then compared under the microscope to successive sections incubated with the tested peptides, and peroxidase-avidin, to determine whether Lewy Bodies (LBs) in post-mortem brain are labelled by the peptides.
Brain sections were immersed in water and placed on slides, then incubated in xylene for 5 min. The xylene was exchanged, and slides incubated for a further 5 min, prior to quenching of endogenous peroxidase activity by incubation with 3% hydrogen peroxide in methanol at room temperature for 30 min. Slides were then washed with the following: 100% ethanol 5 min, 100% ethanol 5 min, 90% ethanol 5 min, 70% ethanol 5 min, formic acid 5 min, 70% ethanol 5 min, distilled water (3 changes) 5 min, PBS 5 min. The slides were incubated in blocking buffer (Vector Labs) for 90 min at 37° C., and washed in PBS for 5 min. […]
The binding of the peptides on 5 mm cryostat sections of fresh frozen post-mortem PD brains was then assessed. […] Slides were then mounted and viewed under fluorescence microscope.

[4] = first mouse, 0.20 ml of 0.4 mg/ml, 0.165 μmol Gd
[5] = 2nd mouse, 0.15 ml of 0.4 mg/ml (0.124 μmol Gd) iv, A=15 min after injection as printed
[6] = 2nd mouse, 0.15 ml of 0.4 mg/ml (0.124 μmol Gd) iv, B=before injection as printed
[7] = after injection, mouse 3, 0.150 mg (0.0618 μmol of Gd) iv
[8] = before injection, mouse 3, 0.150 mg (0.0618 μmol of Gd) iv
[9] = before injection, mouse 4, 0.050 mg (0.0206 μmol of Gd) iv
[10] = first T1 map after injection, mouse 4, 0.050 mg (0.0206 μmol of Gd) iv
[11] = second map started 55 min after injection, mouse 4, 0.050 mg (0.0206 μmol of Gd) iv

For “Gd-DOTA-r-Sar-vva-Sar-K(biotin)-butadiamine [OR6]”, which “brain staining 5 and 15 mins after injection” value ([1]; mice, iv 100 μg/100 μl) is on record?
The value was “Weak but specific staining was also observed in the hypothalamus, thalamus and the periphery of the cerebellum”.

What about the “brain staining 30 post-injection” value ([1]; mice, iv 100 μg/100 μl) of the same substance?
The value was “the staining in the thalamus and the midbrain becomes stronger and staining was also observed in the hippocampus”.

And the “brain staining 5 mins post-injection” value ([1]; mice, iv 100 μg/100 μl)?
The value was “crossed the BBB and stained quite strongly in the midbrain”.

And the “brain staining (hippocampus, midbrain, hypothalamus) 1 hr after injection” value ([1]; mice, iv 100 μg/100 μl)?
The value was “maintained at 1 hr after injection and additionally staining was observed in the hypothalamus”.

What about the “time of peak staining in the cerebellum post-injection” value ([1]; mice, iv 100 μg/100 μl) of the same substance?
Its value is 30 min.

What about the “brain regions stained (summary)” value ([1]; normal mice, iv) of the same substance?
Its value is “preferentially stained in the hypothalamus while displaying stronger staining in the thalamus, midbrain, as well as the hippocampus”.

And the “mean T1 value, CPu, A3d” value (Caudate Putamen, A3d=3 days after the injection, mouse, 0.3 mg (0.18 μmmol Gd) iv)?
The value was 1705.

And the “mean T1 value, CPu, A” value (Caudate Putamen, A=15 min after injection, mouse, 0.3 mg (0.18 μmmol Gd) iv)?
The value was 1008.

What about the “mean T1 value, CPu, B” value (Caudate Putamen, B=before injection, mouse, 0.3 mg (0.18 μmmol Gd) iv) of the same substance?
The value was 1747.

And the “mean T1 value, DpMe, A3d” value (Deep Mesenchephalic nucleus, A3d=3 days after the injection, mouse, 0.3 mg (0.18 μmmol Gd) iv)?
The value was 1532.

What about the “mean T1 value, DpMe, A” value (Deep Mesenchephalic nucleus, A=15 min after injection, mouse, 0.3 mg (0.18 μmmol Gd) iv) of the same substance?
Its value is 940.

And the “mean T1 value, DpMe, B” value (Deep Mesenchephalic nucleus, B=before injection, mouse, 0.3 mg (0.18 μmmol Gd) iv)?
The value was 1630.

And the “mean T1 value, Hippo, A3d” value (Hippocampus, A3d=3 days after the injection, mouse, 0.3 mg (0.18 μmmol Gd) iv)?
The value was 1752.

And the “mean T1 value, Hippo, A” value (Hippocampus, A=15 min after injection, mouse, 0.3 mg (0.18 μmmol Gd) iv)?
The value was 1045.

What about the “mean T1 value, Hippo, B” value (Hippocampus, B=before injection, mouse, 0.3 mg (0.18 μmmol Gd) iv) of the same substance?
Its value is 1771.

What about the “T1 signals 3 days after injection” value (mouse, 0.3 mg in 0.15 ml saline iv) of the same substance?
Its value is “recovered to normal”.

And the “change of T1 values after injection” value (mouse, 0.3 mg in 0.15 ml saline iv, CPu, Hippo, DpMe)?
Its value is “decreased significantly in all regions”.

Which “brain regions stained (summary)” value ([1]; normal mice, iv) does the source give for “Gd-DOTA-r-Sar-vva-Sar-K(biotin)-pentadiamine [OR7]” here?
Its value is “preferentially stained in the hypothalamus while displaying stronger staining in the thalamus, midbrain, as well as the hippocampus”.

What about the “MRI signal after bolus injection (BBB crossing)” value ([2]; normal rats, iv 2 mg in 0.1 ml PBS, 0.0012 mmol of Gd, whole brain, FIG. 14B) of the same substance?
Its value is “a signal increase was detected that demonstrated that OR7 has crossed the BBB”.

What about the “retention in the brain (bolus tracking)” value ([2]; rat, 0.0012 mmolGd and 2 mg peptide) of the same substance?
Its value is “retention of OR7 in the brain”.

What does the source list for “Gd-DOTA-r-Sar-vva-Sar-K(biotin)-rrrrrr [OR5]”?
staining of Lewy Bodies [3]: specific staining to the LBs; also recorded: labelled; brain staining 5 mins post-injection ([1]; mice, iv 50 μg/200 μl): weak and diffuse pattern of staining was observed across the thalamus, the midbrain and the cerebellum; brain staining 10 mins post-injection ([1]; mice, iv 50 μg/200 μl): staining had spread into the hippocampus, the pons as well as the thalamus; brain staining 15 mins post-injection ([1]; mice, iv 50 μg/200 μl): staining appeared in the brainstem including the midbrain and the pons, as well as the thalamus; brain staining (brainstem, thalamus) up to 30 mins post-injection ([1]; mice, iv 50 μg/200 μl): Staining in these areas was maintained; cerebellum staining 30 mins post-injection ([1]; mice, iv 50 μg/200 μl): spread across the entire cerebellar regions including its interior; staining / clearance in the cerebellum at 1 hr post-injection ([1]; normal mice, iv): might be getting cleared from the cerebellum after 1 hr; brain regions stained (summary) ([1]; normal mice, iv): staining was observed in thalamus, midbrain, brain stem and hippocampus; MRI signal after bolus injection (BBB crossing) [4]: a first passage was visible after injection as well as an increase of the signal afterwards; T1 value, CPu, column headed A [5]: 1930; T1 value, DpMe, column headed A [5]: 1612; T1 value, Hippo, column headed A [5]: 1979; T1 value, CPu, column headed B [6]: 1894; T1 value, DpMe, column headed B [6]: 1599; T1 value, Hippo, column headed B [6]: 1923; change of T1 values after injection (2nd mouse, 0.15 ml of 0.4 mg/ml, 0.124 μmol Gd, three segmented regions): slight decrease of the T1 values; T1 value, CPu, mouse 3, A [7]: 1673; T1 value, DpMe, mouse 3, A [7]: 1462; T1 value, Hippo, mouse 3, A [7]: 1759; T1 value, CPu, mouse 3, B [8]: 1694; T1 value, DpMe, mouse 3, B [8]: 1514; T1 value, Hippo, mouse 3, B [8]: 1783; T1 value, CPu, mouse 4, B [9]: 1640; T1 value, DpMe, mouse 4, B [9]: 1457; T1 value, Hippo, mouse 4, B [9]: 1787; T1 value, CPu, mouse 4, A1 [10]: 1627; T1 value, DpMe, mouse 4, A1 [10]: 1460; T1 value, Hippo, mouse 4, A1 [10]: 1786; T1 value, CPu, mouse 4, A2 [11]: 1633; T1 value, DpMe, mouse 4, A2 [11]: 1479; T1 value, Hippo, mouse 4, A2 [11]: 1781

— patent publication US8613905B2, “Diagnostic agent” (United Arab Emirates University, priority 2007, dated 2013)
